Data: paper PMC9712658, “Structural analysis of the 2-oxoglutarate binding site of the circadian rhythm linked oxygenase JMJD5” (Scientific Reports, 2022)

Target: T1, full-length JMJD5 (aa 1–416, JMJD5^FL) (Homo sapiens, UniProt Q8N371)
T1 construct: 10 µM full-length JMJD5 (aa 1–416); His6 (N); made in house; host or cells: Escherichia coli Rosetta2(DE3)-pLysS
T1 sequence (Q8N371 1-416): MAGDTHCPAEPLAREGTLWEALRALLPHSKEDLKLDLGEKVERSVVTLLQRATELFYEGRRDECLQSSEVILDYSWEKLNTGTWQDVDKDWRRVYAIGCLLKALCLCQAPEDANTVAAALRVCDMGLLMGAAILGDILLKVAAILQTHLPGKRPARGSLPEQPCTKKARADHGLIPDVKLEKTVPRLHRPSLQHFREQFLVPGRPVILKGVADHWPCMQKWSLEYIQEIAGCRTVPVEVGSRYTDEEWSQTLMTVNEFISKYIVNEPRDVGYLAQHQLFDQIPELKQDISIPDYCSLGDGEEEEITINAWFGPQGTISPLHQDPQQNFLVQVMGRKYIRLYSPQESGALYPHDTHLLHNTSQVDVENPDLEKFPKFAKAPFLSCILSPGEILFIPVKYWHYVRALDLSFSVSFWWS
Test: JMJD5 inhibition assay by MALDI-TOF MS (hydroxylation of RpS6_129-144 peptide)
Assay type: biochemical
Conditions: 10 µM JMJD5^FL, 100 µM Fe(II), 400 µM ascorbate, 50 µM 2OG, 100 µM RpS6_129-144, inhibitor 0–10 mM; mean (n = 3) ± SD
Text: To explore inhibition involving orthosteric 2OG ligand binding in the JMJD5 2OG pocket, we initially screened a focused set of compounds comprising relatively close 2OG mimetics, tricarboxylic acid (TCA) cycle intermediates, hypoxia inducible factor (HIF) prolyl hydroxylase (PHD) inhibitors, and JmjC histone demethylase (KDM) inhibitors (Supplementary Fig. S1).
[…] Hydroxylation of RpS6 peptide was monitored by MALDI-TOF MS and intensity of hydroxylated peak was quantified to determine the extent of inhibition caused by inhibitor.

**Q.** Which IC50 does the source give for `O=C(O)CC(C(=O)O)C(O)C(=O)O` (stereo not shown) [Isocitrate] here?
**A.** 1294 ± 2 µM
